From patent US7560479B2 (priority 2003, dated 2009) come the findings set out here.

Sequences of proteins named here, by UniProt entry; tags and fusion partners are left off.
UniProt P10980, whole entry, looked up: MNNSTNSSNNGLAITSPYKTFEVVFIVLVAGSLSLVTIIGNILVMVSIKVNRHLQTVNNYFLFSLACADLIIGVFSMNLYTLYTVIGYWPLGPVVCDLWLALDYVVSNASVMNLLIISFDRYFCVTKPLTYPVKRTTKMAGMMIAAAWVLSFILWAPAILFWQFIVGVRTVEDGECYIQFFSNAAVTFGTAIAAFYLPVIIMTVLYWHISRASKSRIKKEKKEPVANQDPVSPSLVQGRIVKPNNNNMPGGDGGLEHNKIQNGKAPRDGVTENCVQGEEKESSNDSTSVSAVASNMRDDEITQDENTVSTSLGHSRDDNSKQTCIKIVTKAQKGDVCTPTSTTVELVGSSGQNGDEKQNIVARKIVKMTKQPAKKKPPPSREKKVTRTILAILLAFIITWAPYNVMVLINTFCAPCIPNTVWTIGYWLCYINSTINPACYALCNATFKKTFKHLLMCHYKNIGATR
UniProt P08483, whole entry, looked up: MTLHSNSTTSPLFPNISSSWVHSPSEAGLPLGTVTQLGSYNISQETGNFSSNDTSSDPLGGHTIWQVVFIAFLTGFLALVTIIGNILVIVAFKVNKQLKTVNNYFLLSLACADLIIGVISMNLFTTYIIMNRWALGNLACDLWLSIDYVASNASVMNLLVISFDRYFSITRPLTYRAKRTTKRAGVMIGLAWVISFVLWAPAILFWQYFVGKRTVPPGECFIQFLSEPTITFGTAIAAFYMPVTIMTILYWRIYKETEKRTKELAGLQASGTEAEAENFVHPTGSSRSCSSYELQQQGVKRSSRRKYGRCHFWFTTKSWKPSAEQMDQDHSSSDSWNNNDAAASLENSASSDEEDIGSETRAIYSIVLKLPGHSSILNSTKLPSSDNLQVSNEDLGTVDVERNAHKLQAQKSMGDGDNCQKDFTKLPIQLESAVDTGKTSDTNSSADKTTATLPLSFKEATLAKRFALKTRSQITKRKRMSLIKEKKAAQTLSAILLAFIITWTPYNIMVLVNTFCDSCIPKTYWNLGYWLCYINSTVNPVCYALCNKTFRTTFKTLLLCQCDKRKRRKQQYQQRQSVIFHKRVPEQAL

Molecules are shown by their SMILES.

Assay [1] has as its target M2 muscarinic receptor subtype (Rattus norvegicus, UniProt P10980). In words: Radioligand binding assay, [3H]-N-methylscopolamine, rat heart membranes. Particulars: [3H]NMS, Ki by Cheng & Prusoff.
In assay [2] the target is M3 muscarinic receptor subtype (Rattus norvegicus, UniProt P08483). The settings on record: rat submandibular gland membranes, [3H]NMS, Ki by Cheng & Prusoff.
The subject of a further assay is isolated rat bladder. Particulars: rat bladder strips, antagonism of carbachol contraction, compound added 20 min prior to second CRC.

On to `O=C(N[C@H]1[C@@H]2CN(Cc3ccccc3)C[C@@H]21)[C@](O)(c1ccccc1)C1CCC(F)(F)C1` (some centres unmarked), for which the “Receptor Binding Assay M2 (pki)” value in assay [1] is listed as 5.35. Also, in assay [2], the “Receptor Binding Assay M3 (pki)” value turned out to be 6.86.

For `CC(C)=CCCN1CC2C(C1)C2NC(=O)C(O)(c1ccccc1)C1CCC(F)C1` (centres unmarked), in assay [1], the “Receptor Binding Assay M2 (pki)” value was 4.9. Further, the “Receptor Binding Assay M3 (pki)” value in assay [2] amounted to 6. In addition, the “Functional Assay pkB” value in the assay on isolated rat bladder came to 7.17.

For the compound `CC(C)=CCCN1C[C@@H]2[C@H](C1)[C@H]2NC(=O)[C@@](O)(c1ccccc1)C1CCCC(F)(F)C1` (single isomer, unassigned), the “Receptor Binding Assay M2 (pki)” value in assay [1] is recorded as 4.8. The “Receptor Binding Assay M3 (pki)” value in assay [2] worked out at 6.2. In addition, in the assay with isolated rat bladder, the “Functional Assay pkB” value is reported as 6.83.
